Data set [1] concerns guinea pig penis. Nature of the data set: Topical application of nitrates to the penis of guinea pigs (change in penile volume). The format is in vivo, male outbred Hartley guinea pigs. The settings on record: for Time of Peak Effect / AUC / Peak Effect (% change) / AUC, % of 1,5-PDN / Peak Effect, % of 1,5-PDN: neat; for AUC / Peak Effect (% change): guinea pig penile volume; for AUC, % of 1,5-PDN / Peak Effect, % of 1,5-PDN: relative to 1,5-PDN.

The nature of data set [2]: Elimination, tissue distribution and absorption of ^14 C-1,5-PDN after IV, oral or dermal dosing in rats. The settings on record: rat, 5 mg/kg.
In data set [3] the test system is rat aortic rings. The data set can be described thus: Vascular reactivity: relaxation of rat aortic rings precontracted with phenylephrine.
The nature of data set [4]: Blood levels of 1,5-PDN and total radioactivity after oral or subcutaneous ^14 C-1,5-PDN in rats. The settings on record: 5 mg/kg.
The nature of data set [5]: Intravenous injection of NTG vs. 1,5-pentane dinitrate in conscious rats (mean arterial blood pressure).
[6] abbreviates: IV, oral or dermal, up to 168 hours.

The structures appear in SMILES notation. Some compounds may have been tested in ways that are not shown here.

For the compound `O=[N+]([O-])OC1CCC(O[N+](=O)[O-])CC1` (stereo not drawn), in data set [1], the “Time of Peak Effect” value worked out at 2 min, the AUC is recorded as 225 and the “Peak Effect (% change)” value is listed as 27.9 % change.

As to `O=[N+]([O-])OCCCCO[N+](=O)[O-]`, in data set [1], the “Time of Peak Effect” value worked out at 2 min; the AUC is given as 403; the “Peak Effect (% change)” value was determined as 35.5 % change; the “AUC, % of 1,5-PDN” value came out at 91%. Further, in data set [1], the “Peak Effect, % of 1,5-PDN” value is recorded as 92%.

For the compound `O=[N+]([O-])OCCCCCO[N+](=O)[O-]`, the “tissue levels of radioactivity” value in data set [2] (168 hours post-dose) is 0.1-1 ppm. For the same compound, in data set [2] (setting [6]), the “dosed radioactivity eliminated as ^14 CO2” value is given as “approximately 60%”, the “dosed radioactivity eliminated in the feces” value is “approximately 5%” and the “dosed radioactivity eliminated in the urine” value turned out to be 30%. In data set [2], the “absorption, oral and dermal routes” value is “well absorbed through both oral and dermal routes”; the “handling in males and females” value is “handled in a similar manner by both males and females”; the “metabolism in vivo” value is “rapidly and extensively metabolized in vivo, largely to CO2”. The “vascular relaxation, potency or efficacy: 1,5-PDN vs 1,5-pentane dinitrite” value in data set [3] (FIG. 10, rat aortic rings) was “no difference in vascular relaxation, either in potency or efficacy”. In addition, the “vascular relaxation: NTG vs 1,5-PDN” value in data set [3] (FIG. 11, rat aortic strips) is reported as “no appreciable difference in the vascular relaxation”. The “level of 1,5-PDN in blood as % of total radioactivity levels” value in data set [4] (oral dosing, corn oil, rat) is given as “less than 0.1%”. The “level of 1,5-PDN in blood as % of total radioactivity levels” value in data set [4] (subcutaneous dosing, PEG 400, rat) is recorded as 3.4%. Also, the “decrease in arterial pressure” value in data set [5] (30 μg) is reported as 8%. Besides, in data set [5] (higher doses (up to 2000 μg)), the “average decrease in blood pressure” value is given as 12-14%. Further, the “effect on penile volume” value in data set [1] (FIGS. 1-3, 1,5-PDN vs saline, 10% NTG solution vs 1,5-PDN, listed as 1,5-pentane dinitrate) is “significantly more effective than the saline control in increasing penile volume”. In data set [1], the “Time of Peak Effect” value is 5 min; the AUC is 442; the “Peak Effect (% change)” value is on record as 38.7 % change; the “AUC, % of 1,5-PDN” value came out at 100%. Besides, the “Peak Effect, % of 1,5-PDN” value in data set [1] amounted to 100%.
